# Antibody variant affinities, Ab-95 light chain, assay 2

The target is the same throughout: PDVDLGDISGINAS, from the HR2 region of SARS-CoV-2 spike.

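The parent was found by panning a naive human phage display library on the peptide. In library AAYL52, one, two or three CDR residues were substituted; doubles and triples were drawn at random. In AlphaSeq, yeast of one mating type display the scFv and yeast of the other type display the target. Pairs that bind mate more often; barcode pairs of the diploids are counted by sequencing. Read counts were normalised to the haploid input and turned into Kd by a linear fit to BCL2-family pairs of known affinity, for each replicate. Each pool was mated in three replicate cultures.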

Each scFv is VH, a (GGGGS)3 linker, VL, as in the parent Ab-95, and differs from it in the CDRs of the light chain only.
VH: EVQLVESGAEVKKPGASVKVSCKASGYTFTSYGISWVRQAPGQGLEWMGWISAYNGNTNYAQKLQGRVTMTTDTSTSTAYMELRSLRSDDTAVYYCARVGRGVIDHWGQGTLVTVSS
VL: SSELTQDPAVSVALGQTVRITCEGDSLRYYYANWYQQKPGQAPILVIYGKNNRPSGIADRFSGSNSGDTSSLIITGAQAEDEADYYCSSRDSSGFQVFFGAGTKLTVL

The parent's light chain CDRs are EGDSLRYYYAN, GKNNRPS, SSRDSSGFQVF; each variant's own CDRs replace them letter for letter.
Values are log10 of the apparent Kd in nM; lower means stronger binding.
Where no diploid with the target was found in that replicate, the entry reads "n.d.": below detection, most likely a poor binder, though not proof of it.
Empty control strains, which show no peptide, gave a signal in 28% of pairings with library AAYL52; the median was 3.91 and 95% of these signals were weaker than 2.90. No background was subtracted. The control count says in how many pairings with the empty strains this scFv gave a signal, with their mean in brackets.

CDR-L1	CDR-L2	CDR-L3	replicates, log10 nM	signal with controls
EGVSLRYYYAH	GFNNRPS	SSRDSSGFQVF	n.d. / n.d. / n.d.	3 of 9 (3.06)
EPDSLRFYYAN	GKNNRPS	SSRDSSGFQVG	n.d. / n.d. / 3.95	2 of 9 (3.88)
EGDSLRYYYAY	GGNNRPY	SSRDSSGFQVF	3.71 / 5.47 / 3.81	2 of 9 (4.65)
EGDSLRYYYAN	GKNNRCS	RSRESSGFQVF	n.d. / 5.49 / n.d.	2 of 9 (4.63)
EGDDLVYYYAN	GKNNRPS	SSRDSSGFIVF	3.16 / 3.49 / 3.21	4 of 9 (4.04)
EGDSLRYYYAN	GSNNRPS	STRDSSGFQKF	2.89 / 3.73 / 3.03	1 of 9 (4.98)
EGDSLRYYYAN	GKNNRPS	SSHDSSRFQEF	2.53 / 3.70 / 1.23	2 of 9 (3.26)
EGSSLRYYYAN	MKNNRPS	SSPDSSGFQVF	4.72 / 4.24 / 3.95	4 of 9 (3.40)
EGDSLRYTYAN	GKNNRPS	SSRDSSGFQVF	0.98 / 0.85 / 0.37	6 of 9 (3.72)
EMDSLRYYYAN	WKNNVPS	SSRDSSGFQVF	4.50 / 4.62 / n.d.	2 of 9 (4.57)
EGDSLFCYYAY	GKNNRPS	SSRDSSGFQVF	n.d. / 4.69 / n.d.	2 of 9 (3.74)
EGDSLRYYYAP	RKANRPS	SSRDSSGFQVF	3.32 / 3.47 / n.d.	2 of 9 (3.73)
EGDSLRYYYAN	GKNNRPS	KSRDSSGFIYF	2.11 / 2.31 / 1.70	1 of 9 (4.83)
EGDYLRYYYAN	GKNNRPS	SCRDSSGFFVF	4.31 / 3.10 / n.d.	0 of 9
TGDSLRYYTAN	GKNNRPS	SGRDSSGFQVF	1.76 / 1.77 / 1.51	8 of 9 (3.63)
EGDSLCYYTAN	GKNHRPS	SSRDSSGFQVF	4.00 / 3.97 / 3.47	4 of 9 (4.27)
EGYSLRYYYAN	VKNNRPS	SMRDSSGFQVF	n.d. / n.d. / n.d.	3 of 9 (3.75)
EDDSLRYYYAN	GKNNRPN	SSADSSGFQVF	3.07 / n.d. / n.d.	1 of 9 (4.07)
GGDSLRYYYAN	GKNNRPS	SSRDSSGFQVF	1.83 / 1.77 / 1.64	0 of 9
EWDSLRYYYAN	GKNNQPS	SSRDSSGFQVF	5.45 / n.d. / n.d.	2 of 9 (2.90)
EGDSLRYYYAN	GKNNRPS	SSCDSSGGQVF	1.72 / 1.92 / 1.37	3 of 9 (4.23)
EGDSLRYSCAN	GKNCRPS	SSRDSSGFQVF	1.62 / 1.55 / 1.25	4 of 9 (3.87)
EGDSLRYYYPN	GKNNFPS	VSRDSSGFQVF	n.d. / n.d. / n.d.	4 of 9 (4.07)
EGDSMRYYYAN	YKNNRPS	SSRDSSSFQVF	n.d. / n.d. / n.d.	2 of 9 (4.26)
EGDSLRYYYAN	GKNNRPS	SSRDSQHQQVF	3.63 / 3.71 / 3.48	4 of 9 (3.64)
EGDSLRYYYAS	CKNNYPS	SSRDSSGFQVF	4.04 / n.d. / n.d.	0 of 9
EGDGLRYYYAN	KKNNRPS	TSRDSSGFQVF	4.14 / n.d. / 3.71	2 of 9 (3.52)
EGDSLRYYYAN	GKNNRHS	SSQDSEGFQVF	n.d. / 4.83 / n.d.	3 of 9 (3.45)
EGDSLRYHYAN	GKQNRPS	SSRDSSNFQVF	1.46 / 1.67 / 0.86	2 of 9 (3.98)
HGDSLRCYYAN	GKNNRPS	SSRTSSGFQVF	3.81 / 2.88 / 2.67	6 of 9 (3.54)
KGDSLRYYYAN	GKNNRPV	DSRDSSGFQVF	1.96 / 2.50 / 1.91	1 of 9 (4.22)
EGDSLRYYYAN	GKNNRPS	YSDDSSGFLVF	2.92 / 3.77 / 3.58	2 of 9 (3.63)
EGDSLRYYYAN	GKNNLPS	SSRDTSQFQVF	3.02 / n.d. / n.d.	2 of 9 (3.41)
EGDSLRYYAAN	GKNERPS	SSRDSSGEQVF	1.68 / 1.66 / 1.38	3 of 9 (4.10)
EGDSLRYYYAN	GKCNRPF	SSRDPSGFQVF	n.d. / n.d. / 3.74	1 of 9 (3.69)
EGDSLRYYYFN	GKNNRPS	SSRLSSGIQVF	3.83 / n.d. / n.d.	4 of 9 (3.84)
EMDSLRYYYAN	GKNNRPP	SSRDSRGFQVF	4.20 / 3.16 / 4.37	5 of 9 (3.45)
EGDGLRYYYAN	GPNNRPS	SSRDSFGFQVF	3.79 / 3.53 / 3.36	4 of 9 (4.25)
EWDSLRYYYAN	GKNNRRS	SSRDSSGFAVF	n.d. / n.d. / n.d.	2 of 9 (3.86)
EGDSLRYRYAN	GKNNHPS	SSRDSSGGQVF	3.11 / 2.74 / 2.85	3 of 9 (4.61)
TGDSLRYYYAN	GKNNCPS	SSRGSSGFQVF	3.19 / 3.42 / 3.66	4 of 9 (4.45)
IGDSLRYYYAN	GLNNRPS	SSRDSSVFQVF	3.97 / n.d. / 4.42	2 of 9 (4.65)
ECDVLRYYYAN	GKNNRPM	SSRDSSGFQVF	4.27 / n.d. / n.d.	1 of 9 (5.19)
EGGSLRYYYAN	VKNTRPS	SSRDSSGFQVF	3.23 / 3.32 / n.d.	1 of 9 (2.74)
EDDSLRHYYAN	GKVNRPS	SSRDSSGFQVF	n.d. / 3.65 / 4.50	4 of 9 (3.67)
EGHNLRYYYAN	GKNNRPS	SSRDSSGAQVF	2.29 / 2.67 / 2.67	4 of 9 (4.03)

8 of these entries, quoted again:

CDR-L1	CDR-L2	CDR-L3	replicates, log10 nM	signal with controls
EDDSLRHYYAN	GKVNRPS	SSRDSSGFQVF	n.d. / 3.65 / 4.50	4 of 9 (3.67)
EGDSLRYYYAN	GSNNRPS	STRDSSGFQKF	2.89 / 3.73 / 3.03	1 of 9 (4.98)
EGDYLRYYYAN	GKNNRPS	SCRDSSGFFVF	4.31 / 3.10 / n.d.	0 of 9
EGDSLRYYYAN	GKNNRPS	YSDDSSGFLVF	2.92 / 3.77 / 3.58	2 of 9 (3.63)
IGDSLRYYYAN	GLNNRPS	SSRDSSVFQVF	3.97 / n.d. / 4.42	2 of 9 (4.65)
EGGSLRYYYAN	VKNTRPS	SSRDSSGFQVF	3.23 / 3.32 / n.d.	1 of 9 (2.74)
EWDSLRYYYAN	GKNNQPS	SSRDSSGFQVF	5.45 / n.d. / n.d.	2 of 9 (2.90)
HGDSLRCYYAN	GKNNRPS	SSRTSSGFQVF	3.81 / 2.88 / 2.67	6 of 9 (3.54)

The measurements come from Engelhart et al. 2022 (doi:10.1038/s41597-022-01779-4) through the FLAb antibody collection.